Measured values reported in paper PMC3644557 (Methods (San Diego, Calif.), 2012).

Key:
[1] = target: recombinant His-tagged apical membrane antigen 1 (His-AMA1), unlabeled (Plasmodium falciparum, UniProt Q7KQK5 1-622); experiment: SPR
[2] = target: NT495-His-AMA1 (Plasmodium falciparum, UniProt Q7KQK5 1-622, fluorescent dye NT495, position not stated); experiment: fluorescence polarisation

B1: biotinylated RON2 peptide (peptide)
chain: DITQQAKDIGAGPVASCFTTRMSPPQQICLNSVVNTALS
modifications: biotin, position not stated
[1]
  Kd: 13 ± 1 nM
[2]
  EC50: 77.1 ± 0.2 nM
